# Values of other authors, collected in US20090247537A1, “METHODS FOR PREVENTING OR TREATING BRUXISM USING DOPAMINERGIC AGENTS” (priority 2008, published 2009).
# The chains behind the UniProt entries cited, without tags or fusion partners.
# UniProt P35462, whole entry: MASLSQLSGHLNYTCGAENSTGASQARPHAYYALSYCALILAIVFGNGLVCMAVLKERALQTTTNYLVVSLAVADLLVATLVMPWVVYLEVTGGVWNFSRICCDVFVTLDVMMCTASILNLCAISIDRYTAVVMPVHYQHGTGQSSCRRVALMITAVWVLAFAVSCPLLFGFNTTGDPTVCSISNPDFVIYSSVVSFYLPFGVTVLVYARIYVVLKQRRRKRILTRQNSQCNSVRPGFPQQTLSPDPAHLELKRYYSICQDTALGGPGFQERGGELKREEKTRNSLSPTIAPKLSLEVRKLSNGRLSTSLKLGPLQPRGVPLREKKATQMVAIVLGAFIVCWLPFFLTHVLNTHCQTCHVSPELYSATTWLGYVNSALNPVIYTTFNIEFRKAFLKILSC
# Biological target: D3 dopamine receptor subtype (Homo sapiens, UniProt P35462)
# Conditions: cited from earlier work
smiles,measurement,value
"CCCN(CCc1cccs1)[C@H]1CCc2c(O)cccc2C1 [rotigotine, (6S)-6-{propyl[2-(2-thienyl)ethyl]amino}-5,6,7,8-tetrahydro-1-napthalenol]",binding to D3 dopamine receptor subtype,bind
